For 24 molecules, inhibition results are on record in PubChem BioAssay AID489030 (Sanford-Burnham Center for Chemical Genomics, 2010).

Chains of the proteins cited; added tags and fusions are not shown.
UniProt O14727, whole entry: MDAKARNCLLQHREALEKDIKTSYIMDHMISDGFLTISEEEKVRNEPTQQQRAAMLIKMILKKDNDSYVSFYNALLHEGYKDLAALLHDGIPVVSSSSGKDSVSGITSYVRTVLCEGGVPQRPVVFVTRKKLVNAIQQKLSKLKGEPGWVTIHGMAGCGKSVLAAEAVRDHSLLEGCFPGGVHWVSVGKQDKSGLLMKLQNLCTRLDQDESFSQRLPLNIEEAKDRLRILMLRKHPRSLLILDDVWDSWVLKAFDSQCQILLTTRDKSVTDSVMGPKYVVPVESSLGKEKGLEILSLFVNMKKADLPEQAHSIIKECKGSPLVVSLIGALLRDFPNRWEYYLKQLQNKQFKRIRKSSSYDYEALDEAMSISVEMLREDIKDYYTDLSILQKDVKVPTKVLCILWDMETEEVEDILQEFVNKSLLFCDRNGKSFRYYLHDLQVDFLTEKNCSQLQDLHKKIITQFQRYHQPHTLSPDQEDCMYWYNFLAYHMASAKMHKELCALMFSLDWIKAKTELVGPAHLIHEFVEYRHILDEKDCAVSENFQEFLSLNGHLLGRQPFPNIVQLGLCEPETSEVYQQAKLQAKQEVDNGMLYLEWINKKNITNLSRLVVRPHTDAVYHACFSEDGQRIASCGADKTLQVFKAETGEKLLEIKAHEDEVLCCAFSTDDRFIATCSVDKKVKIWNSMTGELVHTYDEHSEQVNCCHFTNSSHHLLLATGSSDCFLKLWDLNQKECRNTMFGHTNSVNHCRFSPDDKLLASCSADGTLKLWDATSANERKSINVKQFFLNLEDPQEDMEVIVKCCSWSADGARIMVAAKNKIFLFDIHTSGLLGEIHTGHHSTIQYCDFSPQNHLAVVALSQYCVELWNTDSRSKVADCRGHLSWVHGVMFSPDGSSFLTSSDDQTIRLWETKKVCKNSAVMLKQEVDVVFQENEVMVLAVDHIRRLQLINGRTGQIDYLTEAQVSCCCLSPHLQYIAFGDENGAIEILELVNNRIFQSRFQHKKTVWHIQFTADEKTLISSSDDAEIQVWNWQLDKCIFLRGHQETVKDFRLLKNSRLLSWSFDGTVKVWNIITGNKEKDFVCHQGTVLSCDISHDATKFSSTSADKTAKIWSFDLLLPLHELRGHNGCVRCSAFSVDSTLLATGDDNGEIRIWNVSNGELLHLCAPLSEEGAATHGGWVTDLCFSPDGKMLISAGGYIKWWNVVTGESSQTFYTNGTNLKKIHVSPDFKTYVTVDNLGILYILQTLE

Molecules are shown by their SMILES. The entries are a selection whose mix differs from that of the whole data set. Some tests of the compounds listed are not included; inactive here does not mean inactive elsewhere. The source made the active and inactive calls. The calls were made as follows: active = inhibition of at least 40% at 20 µM; inactive = the rest.

The assay concerns the target Apoptotic protease-activating factor 1 (Homo sapiens) (UniProt O14727). Description: inhibitors of human Apaf-1 apoptosome, primary screen, biochemical, DEVD-Rh110 fluorescence, uHTS (AID 489030).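 Also: plate controls were DMSO wells for no effect and DEVD-CHO caspase inhibitor wells for full effect.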 As to conditions: reconstituted apoptosome caspase-3 activity, at 20 µM, active compounds read high. The essentials:
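System: reconstituted apoptosome with Apaf-1, cytochrome c, caspase-9, procaspase-3, dATP; Signal: Rh110 fluorescence intensity; Schedule: 30 min compound preincubation, 50 min activation, room temperature; Reagent: cytochrome c trigger plus (Z-DEVD)2-Rh110 caspase-3 substrate.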
One may read the inhibition as the change of the read-out against control, counted positive when it falls. Consider `CN(C)C1CCCC1OC(=O)C(O)(c1ccccc1)c1ccccc1` (centres undefined), for which the inhibition was inactive: -1.57%.
With `CN(C)c1ccc(C(=O)NCC2(N(C)C)CCCCC2)cc1`, the inhibition was inactive: 1.89%.
`Cc1ccccc1C(=O)NCC1(N2CCCCC2)CCCCC1`: the inhibition was inactive: 5.1%.
In the case of `O=C(NCC1(N2CCCCC2)CCCCC1)c1cc(F)c(F)cc1Cl`, the inhibition was inactive: 0.996%.
On to `C=CCN1CCN(CCOC(=O)C(O)(c2ccccc2)c2ccccc2)CC1`, for which the inhibition is inactive: 0.163%.
Regarding `COc1ccc(C(=O)NCC2(N(C)C)CCCCC2)cc1`, the inhibition is inactive: 0.503%.
Next, `O=C(NCC1(N2CCCCC2)CCCCC1)c1cccc(Br)c1`: inactive: -8.04%; `Cc1cc(C(=O)NCC2(N3CCCCC3)CCCCC2)ccc1[N+](=O)[O-]`: inactive: 8.62%.
With `CCN1CCCC(OC(=O)C2(O)c3ccccc3C=Cc3ccccc32)C1` (centres undefined), the inhibition was inactive: 3.64%.
`O=C(NCC1(N2CCCCC2)CCCCC1)c1cc([N+](=O)[O-])ccc1Cl`: the inhibition is inactive: -3.52%.
As for `CN1[C@@H]2CC[C@H]1CC(OC(=O)C(O)(c1ccccc1)c1ccccc1)C2` (some centres undefined), the inhibition is inactive: 6.05%.
With `COc1cc(SC)ccc1C(=O)NCC1(N(C)C)CCCCC1`, the inhibition was inactive: 0.788%.
As for `CCN(CC)CC(C)C(C)OC(=O)C(O)(c1ccccc1)c1ccccc1` (centres undefined), the inhibition was inactive: -22.2%.
On to `CC(C)N1C(=O)CC2(CCN(CCOC(=O)C(O)(c3ccccc3)c3ccccc3)CC2)C1=O`, for which the inhibition was inactive: -8.66%.
Next, `Cc1ccc(C(=O)NCC2(N3CCCCC3)CCCCC2)cc1`: inactive: -2.43%.
Consider `O=C(OC1CN2CCC1CC2)C(CO)(c1ccccc1)c1ccccc1` (centres undefined), for which the inhibition is inactive: 0.196%.
Next, `COc1ccc(Br)c(C(=O)NCC2(N3CCCCC3)CCCCC2)c1`: inactive: -8.2%.
For the molecule `CC(C)Oc1ccc(C(=O)NCC2(N(C)C)CCCCC2)cc1`, the inhibition was inactive: 10.9%.
As for `CN(C)c1cccc(C(=O)NCC2(N(C)C)CCCCC2)c1`, the inhibition was inactive: 2.15%.
In the case of `CN(C)C1(CNC(=O)c2ccc(Br)cc2)CCCCC1`, the inhibition is inactive: 20.1%.
Regarding `COc1cc(C(=O)NCC2(N(C)C)CCCCC2)c([N+](=O)[O-])cc1OC`, the inhibition was inactive: 15%.
In the case of `COc1ccc(Cl)cc1C(=O)NCC1(N(C)C)CCCCC1`, the inhibition was inactive: 0.513%.
For `COc1cccc(C(=O)NCC2(N3CCCCC3)CCCCC2)c1`, the inhibition is inactive: -15.9%.
Take `O=C(NCC1(N2CCCCC2)CCCCC1)c1cccc(Cl)c1`: the inhibition is inactive: -3.96%.
